What all share (experiment): Kinase Profiling Assay
Holding throughout (format): biochemical
What all share (conditions): 100 μM peptide

Amino acid sequences for entries named in this document (tags omitted). A change or cut given only in a name is not applied to a line headed by its entry. Residues count along the entry.
UniProt P35916, 25-1363: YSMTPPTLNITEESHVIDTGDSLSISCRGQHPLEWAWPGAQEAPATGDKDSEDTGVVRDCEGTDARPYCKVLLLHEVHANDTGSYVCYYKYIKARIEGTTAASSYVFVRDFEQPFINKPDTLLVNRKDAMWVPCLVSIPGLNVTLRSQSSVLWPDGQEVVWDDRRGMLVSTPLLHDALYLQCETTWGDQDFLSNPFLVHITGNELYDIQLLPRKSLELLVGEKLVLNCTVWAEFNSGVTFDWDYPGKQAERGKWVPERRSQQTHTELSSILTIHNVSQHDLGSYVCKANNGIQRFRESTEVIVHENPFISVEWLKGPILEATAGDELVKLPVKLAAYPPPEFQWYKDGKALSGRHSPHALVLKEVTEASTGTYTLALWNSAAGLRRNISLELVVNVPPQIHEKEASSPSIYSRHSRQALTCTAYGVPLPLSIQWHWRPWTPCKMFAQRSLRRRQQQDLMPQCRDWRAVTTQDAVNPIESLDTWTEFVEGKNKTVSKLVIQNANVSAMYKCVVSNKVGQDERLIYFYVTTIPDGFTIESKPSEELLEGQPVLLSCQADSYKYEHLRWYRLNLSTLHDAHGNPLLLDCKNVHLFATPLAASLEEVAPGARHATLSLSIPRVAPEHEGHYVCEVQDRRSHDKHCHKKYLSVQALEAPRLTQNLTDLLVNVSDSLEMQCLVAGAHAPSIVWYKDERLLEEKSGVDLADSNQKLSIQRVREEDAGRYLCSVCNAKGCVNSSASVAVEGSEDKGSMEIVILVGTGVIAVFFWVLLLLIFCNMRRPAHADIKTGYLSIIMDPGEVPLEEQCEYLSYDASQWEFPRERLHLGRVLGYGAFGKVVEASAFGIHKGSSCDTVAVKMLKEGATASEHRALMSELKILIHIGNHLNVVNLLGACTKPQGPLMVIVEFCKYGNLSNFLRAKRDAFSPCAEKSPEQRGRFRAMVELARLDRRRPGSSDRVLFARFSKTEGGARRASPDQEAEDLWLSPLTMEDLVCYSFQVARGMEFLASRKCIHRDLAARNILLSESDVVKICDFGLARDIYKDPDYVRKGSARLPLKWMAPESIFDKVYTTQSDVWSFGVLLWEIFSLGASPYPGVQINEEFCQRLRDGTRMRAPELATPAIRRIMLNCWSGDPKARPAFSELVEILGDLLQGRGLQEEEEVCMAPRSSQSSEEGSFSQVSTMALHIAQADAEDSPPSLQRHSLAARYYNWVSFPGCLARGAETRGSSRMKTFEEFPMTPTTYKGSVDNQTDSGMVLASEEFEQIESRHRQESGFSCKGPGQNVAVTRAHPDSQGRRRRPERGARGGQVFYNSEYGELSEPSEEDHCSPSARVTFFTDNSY
UniProt Q9P0L2: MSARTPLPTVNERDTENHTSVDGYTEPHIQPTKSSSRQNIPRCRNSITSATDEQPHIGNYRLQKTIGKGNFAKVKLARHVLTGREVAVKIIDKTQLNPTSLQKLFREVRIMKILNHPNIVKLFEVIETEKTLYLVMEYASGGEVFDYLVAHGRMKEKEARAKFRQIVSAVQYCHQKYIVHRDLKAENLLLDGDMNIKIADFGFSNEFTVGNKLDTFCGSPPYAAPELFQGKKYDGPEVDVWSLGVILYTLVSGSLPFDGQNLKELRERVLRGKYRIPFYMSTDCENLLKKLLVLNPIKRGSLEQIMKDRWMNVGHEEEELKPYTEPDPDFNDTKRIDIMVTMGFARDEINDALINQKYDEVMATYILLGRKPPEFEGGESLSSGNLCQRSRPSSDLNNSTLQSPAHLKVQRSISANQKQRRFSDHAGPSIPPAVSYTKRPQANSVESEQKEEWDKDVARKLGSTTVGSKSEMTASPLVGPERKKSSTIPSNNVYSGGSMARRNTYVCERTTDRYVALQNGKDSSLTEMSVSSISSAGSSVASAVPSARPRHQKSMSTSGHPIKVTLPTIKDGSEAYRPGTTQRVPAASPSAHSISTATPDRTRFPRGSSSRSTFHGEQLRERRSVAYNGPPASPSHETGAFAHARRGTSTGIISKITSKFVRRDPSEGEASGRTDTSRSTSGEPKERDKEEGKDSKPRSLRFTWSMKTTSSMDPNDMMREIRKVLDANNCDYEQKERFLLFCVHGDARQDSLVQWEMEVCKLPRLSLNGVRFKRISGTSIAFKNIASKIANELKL
UniProt Q8N4C8: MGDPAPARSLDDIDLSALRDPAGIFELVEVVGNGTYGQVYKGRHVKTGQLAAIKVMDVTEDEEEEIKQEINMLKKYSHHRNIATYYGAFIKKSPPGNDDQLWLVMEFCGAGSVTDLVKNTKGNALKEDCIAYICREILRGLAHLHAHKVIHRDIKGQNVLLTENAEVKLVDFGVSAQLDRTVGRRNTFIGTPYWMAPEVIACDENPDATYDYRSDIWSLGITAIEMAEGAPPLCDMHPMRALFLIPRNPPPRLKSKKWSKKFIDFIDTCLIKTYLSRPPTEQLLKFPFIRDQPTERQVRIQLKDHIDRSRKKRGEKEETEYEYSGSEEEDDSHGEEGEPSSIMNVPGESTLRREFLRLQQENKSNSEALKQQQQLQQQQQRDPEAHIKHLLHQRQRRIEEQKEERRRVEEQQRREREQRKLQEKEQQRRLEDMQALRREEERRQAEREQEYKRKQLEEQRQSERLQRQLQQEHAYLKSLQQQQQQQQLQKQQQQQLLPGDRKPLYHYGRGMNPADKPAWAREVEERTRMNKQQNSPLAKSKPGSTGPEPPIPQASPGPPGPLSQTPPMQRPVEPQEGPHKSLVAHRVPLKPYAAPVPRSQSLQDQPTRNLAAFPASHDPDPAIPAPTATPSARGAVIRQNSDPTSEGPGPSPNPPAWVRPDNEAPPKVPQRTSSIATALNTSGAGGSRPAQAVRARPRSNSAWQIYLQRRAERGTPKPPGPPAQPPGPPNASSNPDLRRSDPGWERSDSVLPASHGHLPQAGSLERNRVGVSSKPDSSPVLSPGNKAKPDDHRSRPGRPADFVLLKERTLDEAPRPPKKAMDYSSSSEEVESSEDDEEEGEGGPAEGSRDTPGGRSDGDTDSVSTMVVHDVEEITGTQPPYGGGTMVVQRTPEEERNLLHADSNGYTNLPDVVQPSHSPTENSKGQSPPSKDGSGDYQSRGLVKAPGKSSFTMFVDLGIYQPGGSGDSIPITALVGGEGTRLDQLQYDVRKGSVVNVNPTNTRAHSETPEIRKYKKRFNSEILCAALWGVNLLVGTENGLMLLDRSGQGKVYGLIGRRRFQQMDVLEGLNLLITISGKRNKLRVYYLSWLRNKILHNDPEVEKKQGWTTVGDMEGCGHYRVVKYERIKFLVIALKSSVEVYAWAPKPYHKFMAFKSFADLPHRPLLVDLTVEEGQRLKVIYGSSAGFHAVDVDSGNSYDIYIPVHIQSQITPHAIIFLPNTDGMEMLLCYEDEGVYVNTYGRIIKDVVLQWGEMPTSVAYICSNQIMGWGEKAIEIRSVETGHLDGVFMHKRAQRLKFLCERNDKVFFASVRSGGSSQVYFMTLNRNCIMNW
UniProt P16234, 24-1089 D842V: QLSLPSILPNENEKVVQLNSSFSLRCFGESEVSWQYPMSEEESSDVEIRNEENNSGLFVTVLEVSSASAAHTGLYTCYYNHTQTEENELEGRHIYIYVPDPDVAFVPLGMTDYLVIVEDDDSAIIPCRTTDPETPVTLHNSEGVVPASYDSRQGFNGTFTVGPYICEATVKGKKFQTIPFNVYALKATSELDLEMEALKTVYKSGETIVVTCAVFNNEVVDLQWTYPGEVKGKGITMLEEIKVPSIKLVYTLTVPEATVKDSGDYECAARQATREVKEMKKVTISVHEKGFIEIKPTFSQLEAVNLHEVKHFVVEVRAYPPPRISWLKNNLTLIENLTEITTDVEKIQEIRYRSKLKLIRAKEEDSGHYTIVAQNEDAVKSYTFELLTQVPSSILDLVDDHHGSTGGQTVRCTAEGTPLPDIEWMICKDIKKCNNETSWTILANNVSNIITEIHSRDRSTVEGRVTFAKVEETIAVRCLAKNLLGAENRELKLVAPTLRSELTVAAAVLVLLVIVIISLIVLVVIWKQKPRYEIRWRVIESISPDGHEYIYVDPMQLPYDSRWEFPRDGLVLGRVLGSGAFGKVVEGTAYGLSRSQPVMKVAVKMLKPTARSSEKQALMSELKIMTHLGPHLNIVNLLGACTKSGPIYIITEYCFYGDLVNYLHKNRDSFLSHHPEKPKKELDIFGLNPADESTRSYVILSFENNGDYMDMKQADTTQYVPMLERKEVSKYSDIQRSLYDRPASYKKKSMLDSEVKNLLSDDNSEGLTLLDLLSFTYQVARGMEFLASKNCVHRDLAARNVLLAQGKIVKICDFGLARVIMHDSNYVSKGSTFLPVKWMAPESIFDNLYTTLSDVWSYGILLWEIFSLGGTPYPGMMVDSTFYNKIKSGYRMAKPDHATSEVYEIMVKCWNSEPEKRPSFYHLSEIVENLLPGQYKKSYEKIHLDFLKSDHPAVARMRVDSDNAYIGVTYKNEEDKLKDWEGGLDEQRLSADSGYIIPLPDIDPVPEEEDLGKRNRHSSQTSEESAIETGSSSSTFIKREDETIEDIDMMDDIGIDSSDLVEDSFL
UniProt Q9H4B4: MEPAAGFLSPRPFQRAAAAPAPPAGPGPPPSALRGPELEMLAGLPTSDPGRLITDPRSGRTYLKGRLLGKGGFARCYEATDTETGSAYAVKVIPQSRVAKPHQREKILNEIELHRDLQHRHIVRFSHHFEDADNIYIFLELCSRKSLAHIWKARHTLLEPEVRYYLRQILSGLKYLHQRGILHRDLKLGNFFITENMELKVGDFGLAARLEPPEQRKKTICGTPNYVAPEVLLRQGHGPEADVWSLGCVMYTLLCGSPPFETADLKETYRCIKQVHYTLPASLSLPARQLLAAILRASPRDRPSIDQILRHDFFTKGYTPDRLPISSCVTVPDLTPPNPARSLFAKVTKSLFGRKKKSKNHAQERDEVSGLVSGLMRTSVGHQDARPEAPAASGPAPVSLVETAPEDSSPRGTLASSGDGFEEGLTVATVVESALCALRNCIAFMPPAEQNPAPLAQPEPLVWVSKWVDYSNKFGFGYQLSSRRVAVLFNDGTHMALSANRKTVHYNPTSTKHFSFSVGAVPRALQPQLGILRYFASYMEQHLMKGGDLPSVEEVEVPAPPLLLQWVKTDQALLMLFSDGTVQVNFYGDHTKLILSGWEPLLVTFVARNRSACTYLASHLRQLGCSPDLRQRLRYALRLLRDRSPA
UniProt P57059: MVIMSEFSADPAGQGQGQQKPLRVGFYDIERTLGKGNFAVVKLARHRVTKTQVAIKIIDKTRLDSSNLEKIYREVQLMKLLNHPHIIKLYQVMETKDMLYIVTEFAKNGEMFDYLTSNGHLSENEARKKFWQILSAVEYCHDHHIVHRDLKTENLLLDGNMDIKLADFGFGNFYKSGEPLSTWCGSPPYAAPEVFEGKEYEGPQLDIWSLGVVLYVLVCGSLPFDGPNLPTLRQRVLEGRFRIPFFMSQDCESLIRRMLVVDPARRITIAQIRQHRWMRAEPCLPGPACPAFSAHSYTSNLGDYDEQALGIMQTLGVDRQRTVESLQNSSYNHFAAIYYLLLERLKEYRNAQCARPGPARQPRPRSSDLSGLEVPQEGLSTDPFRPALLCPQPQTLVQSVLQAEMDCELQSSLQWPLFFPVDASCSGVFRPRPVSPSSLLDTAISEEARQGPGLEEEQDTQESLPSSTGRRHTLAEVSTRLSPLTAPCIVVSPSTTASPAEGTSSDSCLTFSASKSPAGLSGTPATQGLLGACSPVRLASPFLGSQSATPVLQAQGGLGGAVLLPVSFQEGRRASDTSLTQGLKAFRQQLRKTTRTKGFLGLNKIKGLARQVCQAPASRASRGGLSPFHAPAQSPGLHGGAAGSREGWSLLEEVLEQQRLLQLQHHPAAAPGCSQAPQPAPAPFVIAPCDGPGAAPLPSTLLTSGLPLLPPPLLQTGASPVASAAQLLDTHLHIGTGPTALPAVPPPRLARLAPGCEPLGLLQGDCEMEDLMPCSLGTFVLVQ

For experiment [1], the target named is Abl(Q252H)(h) (Homo sapiens, UniProt P00519, Q252H). Put shortly: (§1)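 Each kinase in a 266-member human panel is assayed, in duplicate, for activity in the presence of MK2 inhibitory peptides to gauge specificity.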
In experiment [2] the target is BTK(R28H)(h) (Homo sapiens, UniProt Q06187, R28H). Put shortly: as §1
In experiment [3] the target is T1, BrSK2(h) (Homo sapiens, UniProt Q8IWQ3).
T1 sequence (Q8IWQ3 1-736): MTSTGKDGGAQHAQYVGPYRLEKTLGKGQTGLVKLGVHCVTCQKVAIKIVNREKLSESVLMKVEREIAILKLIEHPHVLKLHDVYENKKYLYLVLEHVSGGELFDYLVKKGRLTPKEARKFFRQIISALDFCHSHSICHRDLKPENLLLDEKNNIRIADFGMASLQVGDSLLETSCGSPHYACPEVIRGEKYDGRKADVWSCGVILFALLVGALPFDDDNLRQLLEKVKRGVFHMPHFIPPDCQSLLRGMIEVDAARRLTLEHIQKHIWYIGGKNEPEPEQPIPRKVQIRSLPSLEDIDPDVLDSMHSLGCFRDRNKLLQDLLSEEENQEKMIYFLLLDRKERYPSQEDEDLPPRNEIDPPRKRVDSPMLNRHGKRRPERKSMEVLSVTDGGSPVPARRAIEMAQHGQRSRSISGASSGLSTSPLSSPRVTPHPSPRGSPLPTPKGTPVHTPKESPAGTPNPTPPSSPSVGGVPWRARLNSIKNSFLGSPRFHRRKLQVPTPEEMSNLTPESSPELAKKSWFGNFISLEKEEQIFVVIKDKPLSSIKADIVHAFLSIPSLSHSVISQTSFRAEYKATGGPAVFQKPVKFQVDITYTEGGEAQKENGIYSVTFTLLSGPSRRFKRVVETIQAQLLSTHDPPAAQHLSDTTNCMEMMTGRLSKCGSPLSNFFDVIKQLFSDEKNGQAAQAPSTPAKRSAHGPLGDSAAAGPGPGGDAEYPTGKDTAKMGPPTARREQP
Put shortly:
as §1

Experiment [4] deals with CDK2/cyclinA(h) (Homo sapiens, UniProt P24941). The method, boiled down: as §1
The target in experiment [5] is CDK9/cyclin T1(h) (Homo sapiens, UniProt P50750). Put shortly: as §1
Experiment [6] deals with CHK2(h) (Homo sapiens, UniProt O96017). The method, boiled down: as §1
Experiment [7] deals with F1t4(h) (Homo sapiens, UniProt P35916). Put shortly:
as §1

In experiment [8] the target is MAPK2(h) (Homo sapiens, UniProt P28482). The method, boiled down:
as §1

Experiment [9] has as its target MARK1(h) (Homo sapiens, UniProt Q9P0L2). The method, boiled down:
as §1

The target of experiment [10] is MEK1(h) (Homo sapiens, UniProt Q02750). The method, boiled down:
as §1

For experiment [11], the target named is MINK(h) (Homo sapiens, UniProt Q8N4C8). Put shortly: as §1
The target in experiment [12] is T2, MST2(h) (Homo sapiens, UniProt Q13188).
T2 sequence (Q13188 1-491): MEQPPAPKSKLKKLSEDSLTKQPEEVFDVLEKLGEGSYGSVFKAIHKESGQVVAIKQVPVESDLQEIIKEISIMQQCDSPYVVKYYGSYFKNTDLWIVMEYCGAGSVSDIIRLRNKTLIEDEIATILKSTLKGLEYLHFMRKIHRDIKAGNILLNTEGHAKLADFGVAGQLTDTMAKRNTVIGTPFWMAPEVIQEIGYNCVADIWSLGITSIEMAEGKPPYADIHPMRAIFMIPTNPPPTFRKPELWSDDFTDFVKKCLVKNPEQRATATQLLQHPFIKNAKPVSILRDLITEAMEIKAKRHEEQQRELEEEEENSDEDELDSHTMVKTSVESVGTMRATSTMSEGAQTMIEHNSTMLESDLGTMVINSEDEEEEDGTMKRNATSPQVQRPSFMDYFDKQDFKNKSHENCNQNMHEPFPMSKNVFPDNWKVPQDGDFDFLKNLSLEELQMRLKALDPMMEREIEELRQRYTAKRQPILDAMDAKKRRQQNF
The method, boiled down:
as §1

The target in experiment [13] is PDGFRα(D842V)(h) (Homo sapiens, UniProt P16234, D842V). Put shortly: as §1
In experiment [14] the target is T3, Plk3(h) (Homo sapiens, UniProt Q9H4B4).
T3 construct: purchased Millipore (IC50 Profiler Express service)
The method, boiled down: as §1

The target of experiment [15] is Rsk3(h) (Homo sapiens, UniProt Q15349). Put shortly:
as §1

Experiment [16] addresses SAPK2a(h) (Homo sapiens, UniProt Q16539). The method, boiled down:
as §1

The target of experiment [17] is SIK(h) (Homo sapiens, UniProt P57059). The method, boiled down:
as §1

For “YARAAARQARAKALNRQLGVA (Mammalian) [MMI-0200]”, the “Abl(Q252H)(h) % activity” value in experiment [1] worked out at 107%. The “BTK(R28H)(h) % activity” value in experiment [2] is 104%. Further, the “BrSK2(h) % activity” value in experiment [3] is given as 102%. Also, in experiment [4], the “CDK2/cyclinA(h) % activity” value is 114%. Moreover, the “CDK9/cyclin T1(h) % activity” value in [5] turned out to be 103%. In [6], the “CHK2(h) % activity” value turned out to be 105%. Further, the “F1t4(h) % activity” value in experiment [7] was 105%. In addition, the “MAPK2(h) % activity” value in [8] came to 105%. For the same sequence, the “MARK1(h) % activity” value in experiment [9] came to 102%. Moreover, the “MEK1(h) % activity” value in [10] turned out to be 116%. In addition, the “MINK(h) % activity” value in experiment [11] is listed as 103%. Also, the “MST2(h) % activity” value in experiment [12] turned out to be 104%. For the same sequence, in experiment [13], the “PDGFRα(D842V)(h) % activity” value stood at 107%. In addition, the “Plk3(h) % activity” value in [14] is 107%. In experiment [15], the “Rsk3(h) % activity” value is 109%. Besides, the “SAPK2a(h) % activity” value in [16] is reported as 107%. Besides, in experiment [17], the “SIK(h) % activity” value is 102%.

For the origin of these results see patent US10562947B2, “Compositions and methods for preventing or treating diseases, conditions or processes characterized by aberrant fibroblast proliferation and extracellular matrix deposition” (MOERAE MATRIX, INC., priority 2011, dated 2020).
